Values quoted from earlier work, collected in patent publication US9149532B2, “Pharmaceutical composition” (DAIICHI SANKYO COMPANY, LIMITED, priority 2007, dated 2015).

Sequences of proteins named here, by UniProt entry; tags and fusion partners are left off. Residues count along the entry.
UniProt P00742, 41-179 partner limits assumed: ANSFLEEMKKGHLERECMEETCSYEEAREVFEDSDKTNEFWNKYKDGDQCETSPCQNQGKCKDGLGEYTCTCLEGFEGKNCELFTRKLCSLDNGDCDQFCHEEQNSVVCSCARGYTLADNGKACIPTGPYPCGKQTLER
UniProt P00742, 235-488 limits assumed: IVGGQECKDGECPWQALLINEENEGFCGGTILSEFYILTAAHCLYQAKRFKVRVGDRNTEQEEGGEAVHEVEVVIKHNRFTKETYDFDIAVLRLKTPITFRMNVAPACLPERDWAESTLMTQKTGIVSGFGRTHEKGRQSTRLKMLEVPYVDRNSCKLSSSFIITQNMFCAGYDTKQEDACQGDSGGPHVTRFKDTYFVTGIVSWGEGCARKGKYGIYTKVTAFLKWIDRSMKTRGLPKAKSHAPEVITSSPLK

Molecular target: activated blood coagulation factor X (Homo sapiens, UniProt P00742)
Settings: known from Patent Documents 1 to 4; cited from earlier work

CN1CCc2nc(C(=O)N[C@@H]3C[C@@H](C(=O)N(C)C)CC[C@@H]3NC(=O)C(=O)Nc3ccc(Cl)cn3)sc2C1 [compound (1), N^1-(5-chloropyridin-2-yl)-N^2-(4-[(dimethylamino)carbonyl]-2-{[(5-methyl-4,5,6,7-tetrahydrothiazolo[5,4-c]pyridin-2-yl)carbonyl]amino}cyclohexyl)ethanediamide]
inhibitory action on activated blood coagulation factor X: potent inhibitory action
